Data from PubChem BioAssay AID1347120 (National Center for Advancing Translational Sciences (NCATS), 2019).
The list shows a part of the results, in another mix than the full data. Results filed as inconclusive are left out. Activity calls are given as the source filed them. The call rests on the fitted dose curve; in most records, active means well fitted activation curve with a large enough effect; inconclusive means small, poorly fitted or top-dose-only effect; inactive means no such curve, though single readings can be large or run the other way.

assay: qHTS for Suppressors of FUS Proteinopathy: Primary screen using FUS-linked yeast assay;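 further: plate controls were DMSO vehicle for no effect and reference control for full effect; nearly all actives have a fitted effect of over 55% in size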; conditions: S. cerevisiae FUS-expressing, OD600, 24 h; at 76.6 µM (top of the series)
From the text: Several widespread neurodegenerative diseases, including Alzheimer disease, Huntington disease, Frontotemporal Lobar Degeneration (FTLD) and Amyotrophic Lateral Sclerosis (ALS), share a common pathological feature, namely accumulation of specific protein aggregates in diseased tissue. These diseases which is associated with protein misfolding (proteinopathies) have become increasingly problematic as the population ages and life expectancies are extended. Most proteinopathies are currently incurable, a situation confounded by the fact that the basis of neurodegeneration is generally poorly understood. There exists urgent and significant need to find therapeutics that can inhibit the toxicity associated with protein aggregation. A novel approach to understand the underlying mechanisms of neurodegenerative diseases has recently emerged in which the disease conditions are modeled in the yeast (Saccharomyces cerevisiae), a tractable eukaryotic organism with conserved protein quality control mechanisms. Yeast offers quick and reliable genetic manipulations and can be easily tailored to high-throughput screening (HTS).
For this project, a yeast model of the FUS proteinopathies (a spectrum of neurodegenerative diseases that include ALS and a subtype of FTLD) was generated and employed. The cytoplasmic accumulation of the DNA/RNA-binding protein FUS (also known as TLS) is causative to both familial and sporadic forms of ALS and FTLD. This yeast model recapitulates neuronal pathology by showing severe cytotoxicity associated with cytoplasmic accumulation of FUS aggregates and a specific interaction between FUS and TDP-43, another ALS-associated protein. […] Specifically, the cellular accumulation of misfolded FUS that disrupts RNA homeostasis in both yeast and higher eukaryotes. This model was validated to be suitable for quantitative HTS (qHTS) use for finding genetic or chemical factors that restore growth. […] Identified compounds that inhibits FUS-yeast toxicity is flagged, re-acquired, and validated for further investigation and optimization.
NIH Chemical Genomics Center [NCGC]
NIH Molecular Libraries Probe Production Centers Network [MLPCN]
Assay Submitter (PI): Frank Shewmaker PhD, Uniformed Services University of the Health Sciences
Compound CP55940 was used as the positive control. Column 1 was treated with CP55940 titration from 92uM (final concentration, 1:2 dilution), while Column 2 was treated with top dose 92uM. Columns 3 and 4 were treated with DMSO only as negative control to assess background and noise signal.
Four hundred fifty microliter of cultured yeast (in 20mL rich medium) provided by Dr. Shewmaker lab was incubated at 30C at 99% humidity for 3hr. The culture was then spun down at 4000rpm for 5min and the cell pellet was resuspended in 2mL of Sdmin Media + ALU(330) + 2.5% Raffinose. One hundred microliter of the suspension was added to 900uL of water and OD of the solution was obtained. Twenty mL of responding medium (provided by Shewmaker lab) + 2.5% raffinose was added to ensure cell density of 0.1; the solution was incubated overnight. Working cell solution (FUS-yeast in Sdmi + Sdmi + 1X ALU + 2% galactose media) was prepared (final OD at 0.005) and 3uL was dispensed in a 1536-well Aurora high based clear bottom assay plates. Controls and library compounds (at various final concentrations from 40uM to 0.32uM) were added using a 1536-well pin array using the Kalypsys pin-tool. The plates were then incubated for 24hrs in a cell-culture incubator (30C; 99% humidity). Absorbance at 600nm was then read using the PerkinElmer ViewLux plate reader.

Row | SMILES | growth rescue (activation)
1 | CCN(CC)C(=S)SC(NC=O)C(Cl)(Cl)Cl (centres undefined) | inactive: -3.56%
2 | CC(C)NC(=O)NP(=O)(Oc1ccccc1)Oc1ccccc1 | inactive: 3.61%
3 | COc1cc(C(=O)NCC2(N3CCOCC3)CCCCC2)ccc1OCC(C)C | inactive: -6.47%
4 | O=[N+]([O-])c1ccc(-c2cc([N+](=O)[O-])c(O)c([N+](=O)[O-])c2)cc1 | inactive: 29.5%
5 | O=[As](O)(c1ccc(O)cc1)c1ccccc1O | inactive: -1.73%
6 | C[As](=O)(O)c1cccc(C(=O)O)c1 | inactive: -10.1%
7 | Cc1ccc2nc3c(c(C)c2c1)CC(C(Cl)Cl)S3 (centres undefined) | inactive: 25%
8 | Cc1ccc(OP(=O)(Nc2ccc([N+](=O)[O-])cn2)Oc2ccc(C)cc2)cc1 | inactive: -19.2%
9 | [N-]=[N+]=NC1CCCCC1NC(=O)c1cc([N+](=O)[O-])cc([N+](=O)[O-])c1 (centres undefined) | inactive: -5.67%
10 | CCOC(=O)Nc1cccc([As](=O)(O)O)c1 | inactive: -5.83%
11 | O=[N+]([O-])c1ccc(Nc2ccc(Oc3ccc([N+](=O)[O-])cc3[N+](=O)[O-])cc2)c([N+](=O)[O-])c1 | inactive: -30.8%
12 | Cc1cc(SC(NC=O)C(Cl)(Cl)Cl)ncn1 (centres undefined) | inactive: 0.72%
13 | O=P(Nc1ccccn1)(c1cccc2ccccc12)c1cccc2ccccc12 | inactive: 2.86%
14 | CC1CCNP(=O)(N(CCCl)CCCl)O1 (centres undefined) | inactive: -15.2%
15 | O=C(O)C(O)c1ccc(N(CCCl)CCCl)cc1 (centres undefined) | inactive: 2.08%
16 | CCOC(=O)Nc1ccc([As](=O)(O)O)c(O)c1 | inactive: -18.2%
17 | CCCCOc1ccc(C(=O)NCC2(N3CCCCC3)CCCCC2)cc1OC | inactive: 18%
18 | COP(=O)(OC)N1CC1c1ccccc1 (centres undefined) | inactive: -5.23%
19 | CCOC(=O)c1ccc(NC(=O)C(C)(CCl)SC)cc1 (centres undefined) | inactive: 6.71%
20 | CSc1ccc(Nc2c([N+](=O)[O-])cc([N+](=O)[O-])cc2[N+](=O)[O-])cc1 | inactive: -7.66%
21 | O=C(OC1CN2CCC1CC2)c1cccc([N+](=O)[O-])c1 (centres undefined) | inactive: 14.4%
22 | CCC(C)N(CC(C)C)C(=S)SC(NC(C)=O)C(Cl)(Cl)Cl (centres undefined) | inactive: 4.48%

Row | SMILES | growth rescue (activation)
23 | COC(=O)C1(C)COP(=O)(N2CCCC2)OC1 (centres undefined) | inactive: -23.6%
24 | COP1(=S)c2c(C)nn(CCC#N)c2N=C(c2ccc(F)cc2)N1C (centres undefined) | inactive: -5.31%
25 | O=C(Nc1ccncc1[N+](=O)[O-])c1ccc([N+](=O)[O-])cc1[N+](=O)[O-] | inactive: -23.2%
26 | O=C(COc1ccccc1)OC1CN2CCC1CC2 (centres undefined) | inactive: 4.42%
27 | O=C(O)C(=O)c1ccc(N(CCCl)CCCl)cc1 | inactive: -8.19%
28 | C[N+]1=C2C=CC=CC=C2SC12C([N+](=O)[O-])=CC([N+](=O)[O-])=C[C-]2[N+](=O)[O-] (centres undefined) | inactive: 24.1%
29 | Nc1ccc([As](=O)(O)c2ccc(N)cc2)cc1 | inactive: -18.2%
30 | CCN(/C(=N/P(=O)(N1CCOCC1)N1CCOCC1)N1CCOCC1)c1ccc(OC)cc1 | inactive: 0.167%
31 | CC(C)=N/N=C(\N)N[N+](=O)[O-] | inactive: 0.174%
32 | CC(C)c1nc(Nc2ccccc2)n(P(=O)(N(C)C)N(C)C)n1 | inactive: -21.4%
33 | c1cc(-c2nn[nH]n2)ccc1-c1nn[nH]n1 | inactive: -24.3%
34 | CC1CCN(C(=O)Oc2c(Cl)cc(Cl)c3cccnc23)CC1 | inactive: 21.4%
35 | COc1ccc(C2=NCC(CBr)S2)cc1 (centres undefined) | inactive: 3.75%
36 | CC(=O)N1C2C3N(C(C)=O)C1C1N(C(C)=O)C(C(N1C(C)=O)N3C(C)=O)N2C(C)=O | inactive: 7.55%
37 | O=[N+]([O-])c1cccc2n[nH]nc12 | inactive: 12.7%
38 | O=[N+]([O-])c1cc([N+](=O)[O-])c(CCNc2ccccc2)c([N+](=O)[O-])c1 | inactive: 22.9%
39 | Cc1ccc(NP(=O)(Oc2ccccc2)Oc2ccccc2)nc1 | inactive: 9.93%
40 | CC(C)(C)C(=O)NC(Sc1ccncn1)C(Cl)(Cl)Cl (centres undefined) | inactive: 15.3%
41 | O=[N+]([O-])c1ncn(CCn2ncnc2[N+](=O)[O-])n1 | inactive: -4.11%
42 | O=[N+]([O-])c1cccc(NC2=NCC(CBr)S2)c1 (centres undefined) | inactive: 3.98%
43 | O=C(O)CNc1ccc([As](=O)(O)O)cc1 | inactive: -26.4%
44 | O=P1(N(CCCl)CCCl)OCCCS1 (centres undefined) | inactive: -0.738%

Row | SMILES | growth rescue (activation)
45 | O=C(Nc1cc([As](=O)(O)O)ccc1O)c1ccccc1 | inactive: -27.1%
46 | CCN(N=Nc1nonc1N)c1nonc1N | inactive: -17.4%
47 | Nc1cccc2ccc([As](=O)(O)O)cc12 | inactive: -29.3%
48 | CCCC1OP(N)(=O)OCC1CC (centres undefined) | inactive: -10.5%
49 | O=C(O)c1ccccc1[As](=O)(O)O | inactive: 8.73%
50 | CC(=O)Nc1ccc([As](=O)(O)O)cc1 | inactive: -7.86%
51 | CN(C)P(=O)(N(C)C)n1c(Nc2ccccc2)nnc1-c1ccccc1 | inactive: 31.3%
52 | O=P(Nc1nc2ccc(Cl)cc2s1)(c1ccccc1)c1ccccc1 | inactive: 25.4%
53 | CN(C(=O)Cc1ccc(Cl)c(Cl)c1)[C@H]1CCCC[C@@H]1N1CCCC1 | inactive: -27.2%
54 | Cc1ccc(NP(=O)(Oc2ccccc2F)Oc2ccccc2F)nc1 | inactive: 12%
55 | CCOP(=O)(Nc1ccccc1)OCC | inactive: 7.65%
56 | Cc1cc(SC(NC(=O)c2ccc(F)cc2)C(Cl)(Cl)Cl)ncn1 (centres undefined) | inactive: 12.1%
57 | CC(C)CC(=O)NC(Sc1ccc(Cl)cc1)C(Cl)(Cl)Cl (centres undefined) | inactive: -10%
58 | Nc1cc(N)c2nonc2c1[N+](=O)[O-] | inactive: 29.4%
59 | O=C(NC(Sc1ccncn1)C(Cl)(Cl)Cl)c1ccccc1 (centres undefined) | inactive: 5.85%
60 | Oc1ccccc1CNc1ccccn1 | inactive: -32.1%
61 | O=[N+]([O-])C1C(O)C(O)C([N+](=O)[O-])C(O)C1O (centres undefined) | inactive: -22.5%
62 | NC(=O)c1cc([N+](=O)[O-])cc([N+](=O)[O-])c1N | inactive: 5.81%
63 | Cc1ccc(N/C(=N/P(=O)(N2CCOCC2)N2CCOCC2)N2CCOCC2)cc1 | inactive: 18%
64 | CN(C(=O)Cc1ccc(Cl)c(Cl)c1)[C@H]1CCCC[C@H]1N1CCCC1 | inactive: -36.7%
